The values that follow are results of earlier work, collected in US20090069418A1, “Compositions and Methods for the Treatment of Disorders Associated with Aberrant Vasodilation” (priority 2007, published 2009).

Sequences of proteins named here, by UniProt entry; tags and fusion partners are left off.
UniProt P34913, whole entry, species assumed: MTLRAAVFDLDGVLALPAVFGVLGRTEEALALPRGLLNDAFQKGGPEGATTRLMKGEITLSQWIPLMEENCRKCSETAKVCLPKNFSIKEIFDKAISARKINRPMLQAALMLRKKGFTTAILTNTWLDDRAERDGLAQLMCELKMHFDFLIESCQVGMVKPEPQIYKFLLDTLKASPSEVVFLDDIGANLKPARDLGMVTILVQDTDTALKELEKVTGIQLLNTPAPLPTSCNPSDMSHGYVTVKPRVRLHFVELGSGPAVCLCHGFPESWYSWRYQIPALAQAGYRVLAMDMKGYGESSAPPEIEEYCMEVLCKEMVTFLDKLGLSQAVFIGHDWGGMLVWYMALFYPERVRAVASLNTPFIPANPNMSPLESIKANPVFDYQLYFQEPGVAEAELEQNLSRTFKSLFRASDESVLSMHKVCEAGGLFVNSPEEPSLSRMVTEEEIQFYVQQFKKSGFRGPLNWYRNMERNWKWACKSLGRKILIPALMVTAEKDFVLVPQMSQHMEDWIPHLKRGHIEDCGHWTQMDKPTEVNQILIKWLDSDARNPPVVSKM

The target of this data set is sEH (Homo sapiens, UniProt P34913). The note with it: previously shown (Kim et al. 2007; Morisseau et al. 2002); cited from earlier work.

For `CCCCOC(=O)CCCCCCCCCCCNC(=O)NC12CC3CC(CC(C3)C1)C2` [AUDA-BE, 12-(3-adamantane-1-yl-ureido)-dodecanoic acid butyl ester], the IC50 result is “low nanomolar range”.
